Results taken from patent publication US12122786B2, “Inhibitors of cyclic mono- and di-nucleotide phosphodiesterases and the uses thereof” (priority 2020, dated 2024).

Biological target: PDE5A (Homo sapiens, UniProt O76074)
Assay: Cyclic mononucleotide phosphodiesterase inhibition (PDE5A), Transcreener fluorescence polarization assay
Conditions: 10 μM of compound, 1 μM cGMP, 1 h

First: CN(C)c1nc(-c2cccnc2)nc2c1CCN(C(=O)c1cccc(O)c1)C2
Second: Cc1ccc(C)c(NC(=O)Cn2cnc3ccccc3c2=O)c1
The “% inhibition (PDE5A)” value of the first is higher: 92.00% for the first, 85.00% for the second.

Going from Cc1ccc(Cl)cc1NC(=O)Cn1cnc2ccccc2c1=O to Cc1ccc([N+](=O)[O-])cc1NC(=O)Cn1cnc2ccccc2c1=O, the “% inhibition (PDE5A)” value rises from 67% to 86.00%.
